This is a selection; strong and weak results do not stand in their true shares. Calls of active or inactive are those of the source. Cut-off read from the data, not from the text of the source: active = inhibition above about 30%; inactive = below that, where a call was filed.
Molecular target: D(2) dopamine receptor (Homo sapiens) (UniProt P14416)
Assay: HTS Assay for Allosteric Antagonists of the Human D2 Dopamine Receptor: Primary Screen for Antagonists; note: 0% is about no effect
Conditions: HEK293 TREx D2 cells, calcium flux, dopamine EC80; at 10 µM; stronger effect = higher value
From the text: NIH Chemical Genomics Center [NCGC] NIH Molecular Libraries Probe Centers Network [MLPCN] MLPCN Grant: NS064831-01 Assay Submitter (PI): David Sibley Dopamine receptors (DARs) are involved in the etiology and/or therapy of a number of neuropsychiatric and endocrine disorders. For instance, all receptor-based antiparkinsonian drugs work via stimulating the D2 DAR subtype whereas all FDA-approved antipsychotic agents are antagonists of this receptor. […] There are three different types of allosteric modulators that we are seeking, two of which will stimulate or augment receptor signaling, allosteric agonists and potentiators, while the third, allosteric antagonists, will attenuate receptor signaling. The present primary screening assay measures compound antagonism after an EC80 addition of dopamine by tracking calcium flux in a […], inducible Hek293 Trex D2 cell line.
Freshly passaged cells are plated in 1536 well black, clear bottom plates at a density of 4000 cells/well in 3 ul of complete media containing 1x tetracycline inducer. After an overnight incubation at 30 C in 5% CO2, cells are loaded with 2 ul of the no wash Calcium Assay Kit (ABD Bioquest) and incubated at room temperature for 30 to 90 minutes. Agonist read: A 10 cycle (1 second/cycle) baseline measurement is taken and then the FDSS online 1536 pintool delivers 23 nl of compound library (as well as dopamine controls) to the plate. The plate is measured for kinetically at 1 cycle/sec for 180 seconds. Following the 180 second read, 1 ul of an EC80 (negative modulation assay) is delivered by an onboard pipette head. Measurements are taken kinetically for an additional 180 seconds.

Sequences of proteins named here, by UniProt entry; tags and fusion partners are left off.
UniProt P14416, whole entry, looked up: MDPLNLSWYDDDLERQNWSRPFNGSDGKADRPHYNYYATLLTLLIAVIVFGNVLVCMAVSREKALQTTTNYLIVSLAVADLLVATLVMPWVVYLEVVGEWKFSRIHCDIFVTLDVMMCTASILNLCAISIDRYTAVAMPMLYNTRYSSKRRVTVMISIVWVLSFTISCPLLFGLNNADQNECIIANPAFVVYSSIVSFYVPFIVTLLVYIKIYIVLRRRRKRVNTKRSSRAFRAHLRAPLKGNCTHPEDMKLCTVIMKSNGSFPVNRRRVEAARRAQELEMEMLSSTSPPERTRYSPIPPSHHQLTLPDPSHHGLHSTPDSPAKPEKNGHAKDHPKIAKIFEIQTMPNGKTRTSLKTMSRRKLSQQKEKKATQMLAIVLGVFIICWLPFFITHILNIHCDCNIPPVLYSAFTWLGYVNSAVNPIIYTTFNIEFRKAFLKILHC

| SMILES | inhibition |
| --- | --- |
| CC(=O)NC(SC(=S)N(C)C)C(Cl)(Cl)Cl (stereo not drawn) | inactive: -27.1% |
| O=[N+]([O-])c1ncn(CCn2cnc([N+](=O)[O-])n2)n1 | inactive: 0.537% |
| C(Cc1nn[nH]n1)Cc1nn[nH]n1 | inactive: 8.52% |
| Nc1ccc([As](=O)(O)c2ccc([N+](=O)[O-])cc2)cc1 | inactive: -15.7% |
| O=C(OC1CN2CCC1CC2)c1cccc(Cl)c1 (stereo not drawn) | inactive: -0.0116% |
| Cc1nn(-c2ccccc2)c2c1P(=O)(N1CCOCC1)N(C)C(c1ccccc1)=N2 (stereo not drawn) | inactive: -1.08% |
| CC1CCC(C(C)C)C(OP(=O)(Nc2ccccn2)c2ccccc2)C1 (stereo not drawn) | inactive: -39.3% |
| Cc1ccc(C(=O)OC2CN3CCC2CC3)cc1 (stereo not drawn) | inactive: 7% |
| O=C(/C=C/c1ccccc1)OC1CN2CCC1CC2 (stereo not drawn) | inactive: 21% |
| CN(C)C1(CNC(=O)c2ccc(S(C)(=O)=O)cc2)CCCCC1 | inactive: -0.482% |
| O=P1(Nc2ncccn2)COc2ccccc2OC1 | inactive: -2.15% |
| Cc1ccc(OCC(=O)OC2CN3CCC2CC3)cc1 (stereo not drawn) | inactive: 14.6% |
| O=[As](O)(c1cccs1)c1cccs1 | inactive: -17.2% |
| O=P1(Nc2ccc(Br)cn2)COc2ccccc2OC1 | inactive: -5.33% |
| Nc1cccc([As](=O)(O)c2ccccc2)c1 | inactive: 3.13% |
| CCOP(=O)(Nc1ccc(C)cn1)OCC | inactive: 1.9% |
| O=P1(Nc2ccccn2)COc2ccccc2OC1 | inactive: -2.85% |
| CCC1=CC2Cc3nc4ccc(Cl)cc4c(N)c3C(C1)C2 (stereo not drawn) | inactive: -18.5% |
| CCOP(=O)(NC(=NC(C)c1ccccc1)NC(C)c1ccccc1)OCC (stereo not drawn) | inactive: 20.5% |
| Clc1n[nH]nc1-c1nn[nH][15n]1 | inactive: 3.82% |
| CC(C)(C)C(=O)NC(Sc1ncccn1)C(Cl)(Cl)Cl (stereo not drawn) | inactive: 14.8% |
| COc1ccccc1CNC(=O)COC(=O)C(O)(c1ccccc1)c1ccccc1 | inactive: -3.8% |
| O=[As](O)(c1ccccc1Br)c1ccccc1Br | inactive: 3.49% |
| CC(C)/C=N\N=C(\N)N[N+](=O)[O-] | inactive: -24.3% |
| CN(C(=O)Cc1ccc(Cl)c(Cl)c1)[C@@H]1CCCC[C@H]1N1CCCC1 | inactive: -21% |

| SMILES | inhibition |
| --- | --- |
| O=[As](O)(O)c1cccnc1 | inactive: -9.11% |
| COc1cc(C(=O)NCC2(N3CCOCC3)CCCCC2)cc(Cl)c1OC(C)C | inactive: -4.26% |
| CS(=O)(=O)c1ccc(Cl)c(NC(=O)COC(=O)C(O)(c2ccccc2)c2ccccc2)c1 | inactive: -30% |
| O=C(OC1CN2CCC1CC2)c1ccc(Cl)cc1 (stereo not drawn) | inactive: 2.85% |
| Cc1cccc(OCC(=O)OC2CN3CCC2CC3)c1 (stereo not drawn) | active: 33.1% |
| O=[As](O)(c1cccc(O)c1)c1cccc(O)c1 | inactive: -9.91% |
| CCCOP(=S)(Nc1nc(N)cc(=O)[nH]1)OCCC | inactive: -4.22% |
| Cc1ccc(NCCc2c([N+](=O)[O-])cc([N+](=O)[O-])cc2[N+](=O)[O-])cc1 | inactive: -13.1% |
| Nc1cccc2c([As](=O)(O)O)cccc12 | inactive: 23.5% |
| COc1cc(C2NCCC3(OCCO3)C2(C)C)cc(OC)c1OC (stereo not drawn) | inactive: 0.906% |
| CCOP(=O)(Nc1cccc2ccccc12)OCC | inactive: 0.753% |
| CS(=O)(=O)c1cc([N+](=O)[O-])c2no[n+]([O-])c2c1 | inactive: 8.45% |
| CCOP1(=S)c2c(C)nn(CCC#N)c2N=C(c2ccccc2F)N1C (stereo not drawn) | inactive: -15.9% |
| O=P(Nc1nccs1)(Oc1ccccc1)Oc1ccccc1 | inactive: -4.25% |
| O=P(Nc1nccs1)(c1ccccc1)c1nc2ccccc2s1 (stereo not drawn) | inactive: 1.29% |
| Nc1ccccc1[As](=O)(O)c1ccccc1 | inactive: 11.5% |
| O=C(O)COc1ccc([As](=O)(O)O)cc1[N+](=O)[O-] | inactive: 14.5% |
| NC(=O)Nc1ccc([As](=O)(O)O)cc1 | inactive: -2.88% |
| O=[N+]([O-])c1ccc2c(c1)nnn2O | inactive: 9.88% |
| N#CCCN(C(=O)COC(=O)C(O)(c1ccccc1)c1ccccc1)c1ccc(F)cc1 | inactive: -16.4% |
| CN(C(=O)Cc1ccccc1)[C@@H]1CC[C@]2(CCCO2)C[C@H]1N1CCCC1 | inactive: -40.8% |
| CCOP1(=S)c2c(C)nn(CCC#N)c2N=C(c2ccc(F)cc2)N1C (stereo not drawn) | inactive: -11.4% |
| C[As](=O)(O)c1cccc(C(=O)O)c1 | inactive: 8.9% |
| O=[As](O)(c1ccc(O)cc1)c1ccccc1O | inactive: -15.2% |
| Cc1ccc2nc3c(c(C)c2c1)CC(C(Cl)Cl)S3 (stereo not drawn) | active: 38% |

| SMILES | inhibition |
| --- | --- |
| Cc1ccc(OP(=O)(Nc2ccc([N+](=O)[O-])cn2)Oc2ccc(C)cc2)cc1 | inactive: -7.5% |
| CC(C)c1ccc(OP(=O)(Nc2ccccn2)Oc2ccccc2F)cc1 (stereo not drawn) | inactive: -9.39% |
| CC(C)NC(=O)NP(=O)(Oc1ccccc1)Oc1ccccc1 | inactive: -4.44% |
| CCN(CC)C(=S)SC(NC=O)C(Cl)(Cl)Cl (stereo not drawn) | inactive: 0.428% |
| O=[N+]([O-])c1cc([N+](=O)[O-])c(-c2ccn[nH]2)s1 | inactive: 26.9% |
| O=C(OC1CN2CCC1CC2)C12CC3CC(CC(C3)C1)C2 (stereo not drawn) | inactive: 2.76% |
| Cc1cc(=O)[nH]c(N[N+](=O)[O-])n1 | inactive: -17% |
| Cc1c2c(nc3ccccc13)SC(C(Cl)Cl)C2 (stereo not drawn) | inactive: -16.4% |
| COc1ccc2nc(NP(=O)(c3ccccc3)c3ccccc3)sc2c1 | inactive: -17.6% |
| COc1cc(I)ccc1[As](=O)(O)O | inactive: -7.88% |
| COc1ccc(N/C(=N/P(=O)(N2CCOCC2)N2CCOCC2)N2CCOCC2)cc1 | inactive: -2.02% |
| COP1(=S)c2c(C)nn(CCC#N)c2N=C(c2ccc(F)cc2)N1C (stereo not drawn) | inactive: 14.6% |
| O=C(COc1ccccc1)OC1CN2CCC1CC2 (stereo not drawn) | inactive: 4.72% |
| O=C(Nc1ccncc1[N+](=O)[O-])c1ccc([N+](=O)[O-])cc1[N+](=O)[O-] | inactive: 7.17% |
| CCOC(=O)c1ccc(NC(=O)C(C)(CCl)SC)cc1 (stereo not drawn) | inactive: 0.125% |
| O=C(OC1CN2CCC1CC2)c1cccc([N+](=O)[O-])c1 (stereo not drawn) | inactive: 9.59% |
| CCC(C)N(CC(C)C)C(=S)SC(NC(C)=O)C(Cl)(Cl)Cl (stereo not drawn) | inactive: -4.86% |
| CCOC(=O)Nc1ccc([As](=O)(O)O)c(O)c1 | inactive: -6.93% |
| CCCCOc1ccc(C(=O)NCC2(N3CCCCC3)CCCCC2)cc1OC | active: 30.7% |
| Cc1cc(SC(NC(=O)c2ccccc2)C(Cl)(Cl)Cl)nc(C(C)C)n1 (stereo not drawn) | inactive: 6.09% |
| CCOC(=O)Nc1cccc([As](=O)(O)O)c1 | inactive: 3.3% |
| O=[N+]([O-])c1ccc(Nc2ccc(Oc3ccc([N+](=O)[O-])cc3[N+](=O)[O-])cc2)c([N+](=O)[O-])c1 | inactive: -10.9% |
| O=P(Nc1ccccn1)(c1cccc2ccccc12)c1cccc2ccccc12 | inactive: 1.11% |
